Measurements from patent publication US9359451B2, “Methods and compositions for treating trauma-hemorrhage using estrogen and derivatives thereof” (THE UAB RESEARCH FOUNDATION, priority 2012, dated 2016).

How the values were obtained:
[1] = Traumatic brain injury: weight loss or gain; format: in vivo, rat; conditions: FIG. 45; after 7 d; vehicle-treated rats continue to lose weight
From the text: The same treatment also improves the injured rat's performance for memory and cognitive functions, which improve further over time. […] Since weight gain is the result of integration of several complex physiological processes (locomotion, wake/sleep cycles and circadian rhythms, olfactory and visual sensing, digestion, etc.) the preservation of weight gain indicates a highly significant benefit from estrogen treatment in TBI.

[2] = system: Sprague-Dawley adult male rats; assay: Traumatic brain injury (lateral fluid percussion): ICP, CPP and pbtO2 monitoring; format: in vivo, rat
Experimental: Sprague-Dawley adult male rats were divided into 4 groups: vehicle, E2-SO4 (1 mg/kg), sham+vehicle and sham+E2-SO4; n=5/group. The TBI model was lateral fluid percussion injury (LFP), induced via a hydraulic pressure pulse to the anesthetized rat's exposed brain. This was introduced through a burr hole in the lateral skull prepared one day prior to LFP. A single iv dose of E2-SO4 or saline vehicle was administered 1 hr after LFP. Physiological parameters were measured 24 hr post-injury.
In a second experiment, the efficacy of E2-SO4 treatment for TBI in a lateral fluid percussion (LFP) model was examined. This involved 6 groups of rats (n=5/group). All rats received a craniectomy. Groups 1, 2, 4 and 5 received LFP injury. Groups 1 and 4 were treated with E2 (1 mg/kg) 1 hr post-injury, groups 2 and 5 were vehicle (Veh)-treated and groups 3 and 6 were sham. […] Relative standard uptake values (SUV) of upper half of brain to central value, fractional anisotropy (FA) and apparent diffusion coefficient (ADC) maps were calculated. […]
The clinical manifestation of edema after TBI can be seen as increased intracranial pressure, with lower brain perfusion pressure and reduced oxygen tension. […] FIG. 44 compares treatments for TBI with hormones, measured over a 120 min period to control the effects of the invasive probe on pressures. […]

For `C[C@]12CC[C@@H]3c4ccc(O)cc4CC[C@H]3[C@@H]1CC[C@@H]2O` [17β-estradiol], the “weight gain after TBI” value [1] was “resume weight gain nearly at the level as the uninjured sham controls”, the intracranial pressure ([2]; FIG. 48, E2 treatment administered 24 hours after TBI) was “markedly reduces intracranial pressure” and the “ICP (intracranial pressure)” value ([2]; TBI (LFP), 1 mg/kg iv 1 hr after injury, measured 24 hr post-injury, TBI vehicle 17.4±0.5, sham 4.7) was 7±0.4 mmHg.
